In patent publication US20120041167A1, “POLY(GLUTAMIC ACID)-DRUG CONJUGATE WITH AN AMINO ACID AS A LINKER” (Institute of Pharmacology and Toxicology Academy of …, priority 2006, published 2012):

Experiments:
[1] = tested on: human liver cancer cells (HepG2); assay: Activities against transplanted human liver cancer tumor in mice; assay type: in vivo, Balb/c-nu/nu nude mice; settings: HepG2 xenograft, 20 days after administration; for Number of animals (final/initial): single i.v. dose 100 mg/kg (as free drug)
Experimental: Balb/c-nu/nu nude mice (5 to 7 weeks old, 16-20 g) were randomly grouped. The mice were inoculated subcutaneously with 0.1 ml of a cell suspension containing 10^6 human liver cancer cells (HepG2). Upon the tumor volume having reached 50 mm^3, the mice were intravenously injected with a dose of a conjugate or a free drug. Twenty days after the administration, the animals were sacrificed and their body weight and tumor weight were measured. Tumor inhibition rate was calculated according to the following equation: […]

[2] = tested on: human breast cancer cells (Bacp-37); assay: Activities against transplanted human breast cancer tumor in mice; assay type: in vivo, Balb/c-nu/nu nude mice; settings: Bacp-37 xenograft, 20 days after administration; for Number of animals (final/initial): single i.v. dose 100 mg/kg
Experimental: Balb/c-nu/nu nude mice (5 to 7 weeks old, 16-20 g) were randomly grouped. The mice were inoculated subcutaneously with 0.1 ml of a cell suspension containing 10^6 human breast cancer cells (Bacp-37). Upon the tumor volume having reached 50 mm^3, the mice were intravenously injected with a dose of a conjugate or a free drug. Twenty days after the administration, the animals were sacrificed and their body weight and tumor weight were measured.

Substance: [N-acetyl-poly-(L)-glutamic acid]-[2′-O-(L-isoleucyl)-docetaxel] conjugate [Compound I18]
- Change of body weight (g) ([1]; i.v. 100 mg/kg (as free drug)): +8.75 g
- Number of animals (final/initial) [1]: 6/6
- Change of body weight (g) ([2]; i.v. 100 mg/kg): +9.16 g
- Number of animals (final/initial) [2]: 6/6

Substance: [N-acetyl-poly-(L)-glutamic acid]-[2′-O-(L-valyl)-paclitaxel] conjugate [Compound I22]
- Number of animals (final/initial) [1]: 6/6
- Number of animals (final/initial) [2]: 6/6

Substance: [poly-(L)-glutamic acid]-[5′-O-(glycyl)-gemcitabine] conjugate [Compound I1]
- Change of body weight (g) ([1]; i.v. 5 mg/kg (as free drug)): +9.94 g
- Change of body weight (g) ([2]; i.v. 5 mg/kg): +9.42 g

Substance: [N-acetyl-poly-(L)-glutamic acid]-[2′-O-(L-alanyl)-paclitaxel] conjugate [Compound I10]
- Number of animals (final/initial) [1]: 6/6
- Number of animals (final/initial) [2]: 6/6

Substance: [N-acetyl-poly-(L)-glutamic acid]-[2′-O-(glycyl)-paclitaxel] conjugate [Compound I4]
- Change of body weight (g) ([1]; i.v. 100 mg/kg (as free drug)): +9.03 g
- Change of body weight (g) ([2]; i.v. 100 mg/kg): +9.24 g

Substance: [N-acetyl-poly-(L)-glutamic acid]-[2′-O-(glycyl)-docetaxel] conjugate [Compound I6]
- Number of animals (final/initial) [1]: 6/6
- Number of animals (final/initial) [2]: 6/6
